Screen size: about 210,000 compounds; about 880 (0.42%) were called active.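 How the source made its calls: active means replicate mean at 85% of control or lower with very high polarization wells dropped (limit read from the data); inactive means the rest.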 For the sample, actives were picked, then their nearest neighbours and some compounds at random.

Protein sequences, listed by entry. Tags and fused reporters are not part of them.
UniProt P08753, whole entry, looked up: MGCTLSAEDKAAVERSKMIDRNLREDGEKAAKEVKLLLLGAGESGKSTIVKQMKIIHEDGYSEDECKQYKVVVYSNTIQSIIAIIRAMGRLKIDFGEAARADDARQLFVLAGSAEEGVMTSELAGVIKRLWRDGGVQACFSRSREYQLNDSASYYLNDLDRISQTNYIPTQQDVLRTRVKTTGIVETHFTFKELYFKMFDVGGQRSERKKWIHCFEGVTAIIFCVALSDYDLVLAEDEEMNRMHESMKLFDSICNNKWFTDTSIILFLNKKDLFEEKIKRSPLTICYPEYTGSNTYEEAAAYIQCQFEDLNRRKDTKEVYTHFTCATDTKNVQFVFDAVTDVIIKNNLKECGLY

The experiment deals with Guanine nucleotide-binding protein G(i) subunit alpha-3 (Rattus norvegicus) (UniProt P08753). Briefly: disruptors of GIV-Galphai3 protein-protein interaction – biochemical, fluorescence polarization, FITC-GIV GBA peptide, rat Galphai3, primary screen (AID 1224905).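 Further: lower values mean more displacement of the GIV peptide from Galpha-i3.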 The note with it: Galpha-i3/FITC-GIV peptide fluorescence polarization, 90 min; active compounds read low; scaled: aluminum fluoride 0%, vehicle 100%. In general terms: Polarisation of emitted light reports the rotation of a fluorescent probe.
For `COCCNC(=O)c1ccc(Cn2c(SCC(=O)NCc3ccccc3)nc3ccc(Br)cc3c2=O)cc1`, the percent of control (FP) was 97.2% (inactive).

Turning to `CCOC(=O)c1ccc(-c2ccc(/C=C(\C#N)C(=O)Nc3ccc(OCC)cc3)o2)cc1`, the percent of control (FP) was 102% (inactive).

With `N#C/C(=C\c1ccc(-c2ccccc2)o1)C(=O)Nc1ccccc1`, the percent of control (FP) is 36.5% (active). The figure for `CCOC(=O)c1ccc(-c2ccc(/C=C(\C#N)C(=O)Nc3ccc(C)cc3)o2)cc1` is 99.2% (inactive). For the molecule `CCNC(=O)N1CCCC(c2nc(C(C)C)cs2)C1` (configuration not stated), the percent of control (FP) was 105% (inactive). The figure for `O=C(CN1CCN(C(=O)c2cccc(Cl)c2)CC1)Nc1nnc(-c2ccccc2)s1` is 98.2% (inactive). Take `CCOc1ccc(NC(=O)Cn2c(SCC)nc3ccccc32)cc1`: the percent of control (FP) is 98.2% (inactive). The value for `O=c1[nH]c2c(c(=O)n1Cc1ccccc1)CCC2` was 110% (inactive); that for `Cc1cc2nc3c(=O)n(Cc4ccccc4)c(=O)[nH]c3nc2cc1N` was 72.2% (active); that for `Cc1cc2nc3[nH]c4ccccc4c3nc2cc1C` was 109% (inactive). The value for `Cc1sc(NC(=O)c2ccccc2)c(C(Nc2ccccn2)c2cccnc2)c1C` (configuration not stated) was 102% (inactive).

In the case of `Fc1ccccc1CSc1nccn2nc(-c3ccc(Br)cc3)cc12`, the percent of control (FP) is 111% (inactive). The figure for `Cc1ccc(C2(c3ccc(C)cc3)CC2C(=O)Nc2cccc(C(F)(F)F)c2)cc1` (configuration not stated) is 104% (inactive); for `Cc1ccc(OCCn2cc(/C=C3/C(=O)Nc4cc(Cl)ccc43)c3ccccc32)cc1C` it is 35.2% (active).

With `COc1ccccc1OCCCn1cc(/C=C2/C(=N)N3C=CSC3=NC2=O)c2ccccc21`, the percent of control (FP) was 103% (inactive). Consider `Cc1ccc(OCCn2cc(C(=O)c3ccccc3)c3ccccc32)cc1`, for which the percent of control (FP) was 99.6% (inactive). The value for `CCc1cc2c(NC3CCCCC3)ncnc2s1` was 117% (inactive).

On to `O=c1sc2ccccc2c2nc[nH]c12`, for which the percent of control (FP) was 99.7% (inactive). Regarding `O=C(Cn1c2c(c(-c3ccccc3Cl)cc1=O)CCC2)NC1CCCCC1`, the percent of control (FP) was 108% (inactive). The figure for `CNC(=O)CSc1nnc2[nH]c(=O)cc(C)n12` is 108% (inactive); for `N#Cc1c(N2CCCCCC2)ncc2cc3ccccc3nc12` it is -18.1% (active).

With `Cc1c(Cc2ccccc2)c(N2CCCCC2)n2c(nc3ccccc32)c1C#N`, the percent of control (FP) is 146% (inactive). The figure for `Cc1cc(N2CCN(c3ccccc3)CC2)n2c(nc3ccccc32)c1C#N` is 99.6% (inactive); for `Cc1cc(C(=O)NCCN2CCOCC2)c2c(=O)n(C)c(=O)n(C)c2n1` it is 105% (inactive). Regarding `CC(=O)N[C@H]1[C@H](Oc2ccc(C)cc2)O[C@H](COC(C)=O)[C@@H](OC(C)=O)[C@@H]1OC(C)=O`, the percent of control (FP) was 131% (inactive).

In the case of `CCOC(=O)CSc1ncn[nH]1`, the percent of control (FP) is 102% (inactive). The value for `CCn1nc(C)cc1-c1nnc(SCC(=O)c2ccc(C)cc2)o1` was 108% (inactive); that for `CCN(CC)c1ccc2cc(-c3csc(-c4nc(-c5cc6ccc(N(CC)CC)cc6oc5=O)cs4)n3)c(=O)oc2c1` was 109% (inactive); that for `CCN(CC)c1ccc2cc(C(=O)O)c(=O)oc2c1` was 115% (inactive). Take `CCN(CC)c1ccc2oc(=O)c(C)nc2c1`: the percent of control (FP) was -40.7% (active). The value for `Cc1c(C(=O)NCC(c2ccccc2)c2c[nH]c3ccccc23)oc2ccc(Cl)cc12` (configuration not stated) was 105% (inactive); that for `O=C1NC(=O)/C(=C/c2ccc(-c3ccc([N+](=O)[O-])cc3Br)o2)S1` was 62.8% (active).

As for `N=C1S/C(=C\c2ccc(-c3ccccc3[N+](=O)[O-])o2)C(=O)N1c1ccc2c(c1)OCO2`, the percent of control (FP) is 114% (inactive). The value for `O=C1N/C(=C/c2ccc(-c3ccc([N+](=O)[O-])cc3Br)o2)C(=O)N1Cc1ccc(Cl)cc1` was 146% (inactive); that for `O=C(NCc1ccco1)c1cc2nc(-c3ccc(Cl)c(Cl)c3)cc(C(F)(F)F)n2n1` was 101% (inactive). In the case of `O=C(O)c1cc(NS(=O)(=O)c2ccc3c(c2)CCCC3)cnc1N1CCOCC1`, the percent of control (FP) is 80.8% (active). The figure for `Cn1c(=O)n(C)c2cc(N3CCOCC3)c(NS(=O)(=O)c3ccc4c(c3)CCCC4)cc21` is 103% (inactive); for `O=C(O)c1cc(NS(=O)(=O)c2cc(F)ccc2F)cnc1N1CCC(N2CCCCC2)CC1` it is 93.7% (inactive); for `O=C(CSc1nnc(C2COc3ccccc3O2)n1-c1ccccc1)c1cccc([N+](=O)[O-])c1` (configuration not stated) it is 99.2% (inactive). `Cc1cc(Br)ccc1N1C(=O)NC(=O)/C(=C/c2cn(CC(=O)N3CCOCC3)c3ccccc23)C1=O`: the percent of control (FP) was 103% (inactive). On to `COCCNC(=O)Cn1cc(/C=C2\C(=O)NC(=O)N(C3CCCCC3)C2=O)c2ccccc21`, for which the percent of control (FP) is -38.3% (active). `COc1ccccc1N1C(=O)NC(=O)/C(=C/c2cn(C(C)=O)c3ccccc23)C1=O`: the percent of control (FP) was 118% (inactive). As to `NC(=O)c1nsc2c(=O)n(CC(=O)NCc3ccco3)cnc12`, the percent of control (FP) was 95.4% (inactive). The value for `CCOC(=O)c1c(NC(=S)NC(=O)c2ccccc2)sc2c1CC(C)(CC)OC2` (configuration not stated) was 107% (inactive); that for `Cc1cc(C)c2[nH]c(=O)c(NC(N)=S)nc2c1` was 109% (inactive); that for `Cc1c(C(=O)NCC2COc3ccccc3O2)sc2ncnc(N3CCCCC3C)c12` (configuration not stated) was 103% (inactive). For the molecule `COc1ccccc1N(Cc1nc2nc(C)cc(C)n2n1)C(=O)C(C)(C)C`, the percent of control (FP) was 105% (inactive). The value for `COc1cc(-c2noc(-c3cc(-c4cc(C)ccc4C)n[nH]3)n2)ccc1OC(C)C` was 109% (inactive); that for `O=C(NCc1ccc2c(c1)OCO2)C1CCCN(S(=O)(=O)N2CCOCC2)C1` (configuration not stated) was 105% (inactive). The figure for `CN1C(=O)/C(=C/c2ccco2)SC1=Nc1cccc(C(=O)O)c1` is 103% (inactive).

Regarding `O=C(O)CCC(C(=O)O)N1C(=O)/C(=C\c2ccco2)SC1=S` (configuration not stated), the percent of control (FP) is 79.9% (active). The value for `CN1CCN(NC(=O)CCN2C(=O)/C(=C\c3ccco3)SC2=S)CC1` was 106% (inactive); that for `COc1ccc(S(=O)(=O)N2CCC(NC(=O)NCc3ccc(C)cc3)CC2)cc1` was 98.6% (inactive); that for `O=C(NCCCN1CCC(N2CCCCC2)CC1)c1nnc(C(=O)Nc2ccccc2)s1` was 101% (inactive). The value for `O=C(CCc1ccccc1)N1CCN(C(=O)c2cc3cc(Br)ccc3[nH]2)CC1` was 108% (inactive); that for `CN1C=C/C(=C\C=C2/C=Nc3ccccc32)c2ccccc21` was -76.3% (active). As for `CCCCN(CCCNC(=O)Nc1cn(CC(C)C)c(=O)c2ccccc12)Cc1ccccc1`, the percent of control (FP) is 98.7% (inactive).

On to `COc1ccc(S(=O)(=O)Nc2cc(C(=O)O)cnc2N2CCC(Cc3ccccc3)CC2)cc1`, for which the percent of control (FP) is 102% (inactive). The figure for `COC(=O)COc1ccc(/C=C2\C(=O)NC(=S)N(c3ccc(Br)cc3)C2=O)cc1OC` is 104% (inactive).

Take `Cc1ccc(N2C(=O)/C(=C/c3ccc(OCC(=O)O)c(Br)c3)C(=O)NC2=S)cc1`: the percent of control (FP) was 82.1% (active). The figure for `COc1ccc(N2C(=O)/C(=C/c3cc(Cl)c(OCC(=O)O)c(Cl)c3)C(=O)NC2=S)cc1` is 94.6% (inactive). The figure for `Cc1oc(C2CCN(C(=O)Cc3ccsc3)CC2)nc1C(=O)N1CCCC1` is 99.3% (inactive); for `CC(C)CC(C(=O)Nc1ccc(Cl)cc1)N1C(=O)c2ccccc2C1=O` (configuration not stated) it is 108% (inactive). The figure for `CCOC(=O)c1c(NC(=O)C(C)Sc2nnc(CNC(=O)c3cccs3)n2C2CCCCC2)sc2c1CCCC2` (configuration not stated) is 109% (inactive); for `CC[n+]1c(C)n(-c2ccccc2)c2ccc(N)cc21` it is 101% (inactive). As to `CC[n+]1c(/C=C/C=C2\N(C)c3ccccc3C2(C)C)n(-c2ccccc2)c2ccc(Cl)cc21`, the percent of control (FP) was -32.2% (active). The value for `COc1ccccc1CNC(=O)C1CCCN1c1nn2c(=O)cc(C)nc2s1` (configuration not stated) was 96.8% (inactive). As for `O=C(/C=C/c1ccccc1)Nc1cc(C(=O)N2CCc3ccccc3C2)ccc1N1CC2CC(C1)c1cccc(=O)n1C2` (configuration not stated), the percent of control (FP) was 108% (inactive). As to `CCN(CC)c1cc(NC2CCCCC2)c2c3c(onc13)-c1ccccc1C2=O`, the percent of control (FP) was -7.19% (active). The figure for `CCNc1cc(Nc2ccccc2)c2c3c(onc13)-c1ccccc1C2=O` is 104% (inactive); for `CCOC(=O)N1CCN(c2cc(Nc3c(C)cc(C)cc3C)c3c4c(onc24)-c2ccccc2C3=O)CC1` it is 140% (inactive). For `CC1CCN(S(=O)(=O)c2ccc3nn(CC(=O)OC(C)C)c(=O)n3c2)CC1`, the percent of control (FP) was 103% (inactive). The figure for `COc1ccccc1-c1c(C(F)(F)F)oc2c(CN3CCN(C)CC3)c(O)ccc2c1=O` is 102% (inactive); for `Cc1nn(CCC(=O)NC2CCCC2)c(=O)c2nn(-c3ccccc3)c(C)c12` it is 98.5% (inactive); for `CC(=O)Nc1ccc(NS(=O)(=O)c2cc(S(=O)(=O)Nc3ccc(NC(C)=O)cc3)c3cccc4c3c2NC4=O)cc1` it is 108% (inactive).

In the case of `CC(C)c1ccc(NC(=O)c2ccc3c(O)c(S(=O)(=O)c4ccccc4)c(=O)[nH]c3c2)cc1`, the percent of control (FP) was 98.9% (inactive). In the case of `CC(=O)Nc1ccc(Nc2c3c4c(cccc4[nH]c2=O)C(=O)c2ccccc2-3)cc1`, the percent of control (FP) was 60.9% (active). The value for `CCC(C)OC(=O)C1=C(C)NC2=C(C(=O)CC(c3ccc(OC)cc3)C2)C1c1cc2c(cc1[N+](=O)[O-])OCO2` (configuration not stated) was 103% (inactive). Regarding `CCCCc1nnc2sc(-c3cccc(N(C)C)c3)nn12`, the percent of control (FP) is 97.3% (inactive). As to `Cc1nn(C)c(C)c1CCN(C)C(=O)Nc1ccc(Br)cc1F`, the percent of control (FP) is 105% (inactive). The figure for `COc1ccc(-n2ccc(=O)c(-c3nc(-c4ccc(F)c(Cl)c4)no3)n2)cc1` is 102% (inactive); for `Fc1cccc(CNC2=NCCNC23CCCCCC3)c1` it is 112% (inactive); for `Cc1cc(N2CCOCC2)ccc1C=C1C(=O)c2ccccc2C1=O` it is 123% (inactive). In the case of `COC1=C(N2CCOCC2)C(=O)c2ccccc2C1=O`, the percent of control (FP) is 81.8% (active).

With `COc1ccc(N2CCN(C(C)=C3C(=O)c4ccccc4C3=O)CC2)cc1`, the percent of control (FP) was 97.8% (inactive). On to `Nc1nc(=O)n(C2OC(CO)C(O)C2O)cc1Br` (configuration not stated), for which the percent of control (FP) was 107% (inactive). The figure for `CCN1CCN(Cc2c(O)ccc3c(=O)c(Oc4ccccc4Br)c(C(F)(F)F)oc23)CC1` is 96.7% (inactive).

Values taken from PubChem BioAssay AID1224905 (ICCB-Longwood Screening Facility, Harvard Medical School, 2016).
